# The entries are a selection whose mix differs from that of the whole data set. Some results for these compounds are left out of this collection, so the calls shown say nothing about other tests. The source made the active and inactive calls.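 The calls were made as follows: active = GFP/RFP ratio change of at least 30% with cell ATP level not reduced by more than half and red fluorescence within 50% of control; inactive = the rest, inconclusive results apart.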
# Target: Matrix metalloproteinase-14 (Homo sapiens) (UniProt P50281)
# Assay: blockers of MT1-MMP proenzyme processing, primary screen, HT1080 RFP-PRO-GFP cells, GFP/RFP fluorescence (AID 651647)
# Conditions: overnight, at 20 µM, stronger effect = higher value, percent of plate control window, DMSO zero
# In short: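 Test system: HT1080 RFP-PRO-GFP cells; Benchmarks: DMSO and RFP-L50D-GFP cell wells; Timing: cells overnight before dosing, compound overnight, 37 °C, 5% CO2; Compound: one 20 µM compound dose with 1% DMSO; Read-out: GFP/RFP fluorescence ratio.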
row,Compound,GFP/RFP ratio change
1,COc1ccc(C(=O)NCC2(N(C)C)CCCCC2)cc1,inactive: -1.69%
2,CCN1CCCC(OC(=O)C2(O)c3ccccc3C=Cc3ccccc32)C1 (stereo unspecified),inactive: -0.552%
3,Cc1cc(C(=O)NCC2(N3CCCCC3)CCCCC2)ccc1[N+](=O)[O-],inactive: 3.06%
4,O=C(NCC1(N2CCCCC2)CCCCC1)c1cccc(Br)c1,inactive: -1.22%
5,C=CCN1CCN(CCOC(=O)C(O)(c2ccccc2)c2ccccc2)CC1,inactive: 5.49%
6,O=C(NCC1(N2CCCCC2)CCCCC1)c1cc(F)c(F)cc1Cl,inactive: 0.109%
7,Cc1ccccc1C(=O)NCC1(N2CCCCC2)CCCCC1,inactive: 0.666%
8,CN(C)c1ccc(C(=O)NCC2(N(C)C)CCCCC2)cc1,inactive: 0.0762%
9,CN(C)C1CCCC1OC(=O)C(O)(c1ccccc1)c1ccccc1 (stereo unspecified),inactive: -0.888%
10,Cc1ccc(C(=O)NCC2(N3CCCCC3)CCCCC2)cc1,inactive: -1.66%
11,CCN(CC)CC(C)C(C)OC(=O)C(O)(c1ccccc1)c1ccccc1 (stereo unspecified),inactive: 0.641%
12,COc1cc(SC)ccc1C(=O)NCC1(N(C)C)CCCCC1,inactive: -1.54%
13,CC(C)N1C(=O)CC2(CCN(CCOC(=O)C(O)(c3ccccc3)c3ccccc3)CC2)C1=O,inactive: -3.16%
14,CN1[C@@H]2CC[C@H]1CC(OC(=O)C(O)(c1ccccc1)c1ccccc1)C2 (stereo partly specified),inactive: -13.8%
15,O=C(NCC1(N2CCCCC2)CCCCC1)c1cc([N+](=O)[O-])ccc1Cl,inactive: -10.6%
16,CC(C)Oc1ccc(C(=O)NCC2(N(C)C)CCCCC2)cc1,inactive: -2.74%
17,O=C(OCCN1CCCC1)C(O)(c1ccccc1)c1ccccc1,inactive: -1.09%
18,CN(C)c1cccc(C(=O)NCC2(N(C)C)CCCCC2)c1,inactive: 3.4%
19,C=C(C)C#CC(O)(C(=O)OC1CCN(C)CC1)c1ccccc1 (stereo unspecified),inactive: 0.321%
20,COc1ccc(Br)c(C(=O)NCC2(N3CCCCC3)CCCCC2)c1,inactive: -3.49%
21,O=C(OC1CN2CCC1CC2)C(CO)(c1ccccc1)c1ccccc1 (stereo unspecified),inactive: -23%
22,O=C(NCC1(N2CCCCC2)CCCCC1)c1cccc(Cl)c1,inactive: -0.532%
23,COc1cccc(C(=O)NCC2(N3CCCCC3)CCCCC2)c1,inactive: 0.748%
24,COc1ccc(Cl)cc1C(=O)NCC1(N(C)C)CCCCC1,inactive: -1.3%
25,COc1cc(C(=O)NCC2(N(C)C)CCCCC2)c([N+](=O)[O-])cc1OC,inactive: -2.69%
26,CN(C)C1(CNC(=O)c2ccc(Br)cc2)CCCCC1,inactive: 3.24%

# From PubChem BioAssay AID651647 (Sanford-Burnham Center for Chemical Genomics, 2012)
